Apparent affinities of Ab-14 variants for a coronavirus HR2 peptide

Values reported by Li et al. 2023, doi:10.1038/s41467-023-39022-2 (FLAb copy).

Antigen: PDVDLGDISGINAS, a 14-residue peptide of the SARS-CoV-2 spike HR2 region.

The variants keep the heavy chain, the linker and the frameworks of Ab-14 (scFv order VH, a 15-residue (Gly4Ser)3 linker, VL).
VH: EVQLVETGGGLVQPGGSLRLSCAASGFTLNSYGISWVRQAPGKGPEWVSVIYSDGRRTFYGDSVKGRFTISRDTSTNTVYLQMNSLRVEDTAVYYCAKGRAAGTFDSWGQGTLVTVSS
VL: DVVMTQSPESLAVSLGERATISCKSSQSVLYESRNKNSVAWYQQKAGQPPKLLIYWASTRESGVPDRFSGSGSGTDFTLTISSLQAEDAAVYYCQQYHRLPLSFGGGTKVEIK

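The starting antibody came from a phage panning campaign against this peptide. The variants were designed computationally from a first round of random CDR variants and then made and measured. Group labels follow the data file (Ctrl: baseline library sampled from a position-specific scoring matrix, with some repeated check sequences; En: ensemble of fine-tuned language models; GP: Gaussian process model; HC: hill climbing; Gen: genetic algorithm; Gibbs: Gibbs sampling; a sequence that several methods proposed may carry one label only). In AlphaSeq, yeast of one mating type display the scFv and yeast of the other type display the target. Binding brings cells together so that they mate, and sequencing counts the barcode pairs among the diploids. The ratio of observed to expected reads was calibrated, replicate by replicate, on BCL2-family standards whose Kd was known from biolayer interferometry. There are six technical replicates.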

Each variant is given by its three light chain CDRs, as the data file delimits them; those of the parent are KSSQSVLYESRNKNSVA, WASTRES, QQYHRLPLS.
Scale: log10 of Kd in nM, estimated from mating counts; low values are strong binders.
The mean shown is taken over the replicates in which the pair was detected.
Where no diploid with the target was found in any replicate, the entry reads "no signal": below detection, most likely a poor binder, though not proof of it.
The authors averaged sequences with at least three values out of six and counted those with two or fewer as poor binders.
The range of this assay differs from that of the first round, and the authors advise against merging the two.
The parent sequence was in this pool as ten entries: three were never detected, three once, and four in most replicates, with averages from 0.34 to 2.37.
Three control strains display no target. For all light chain designs, 4% of the pairings with them gave a signal, with a median of 2.64 and one signal in twenty below 1.59, so weak values seen in few replicates may be background.

{"CDR-L1": "NLGQKMSLEYEQRNSIA", "CDR-L2": "DMTVREY", "CDR-L3": "QQYSRIPLI", "group": "En_Gibbs", "mean, log10 nM": "0.68", "detected": "6/6"}
{"CDR-L1": "KHSQSFLYESRNCNSVA", "CDR-L2": "WASTRES", "CDR-L3": "QQYHRLPLS", "group": "Ctrl", "mean, log10 nM": "2.43", "detected": "3/6"}
{"CDR-L1": "MIYGTQRELGLAANSIA", "CDR-L2": "DNVTRYD", "CDR-L3": "QQYERLPLS", "group": "En_Gen", "mean, log10 nM": "1.70", "detected": "1/6"}
{"CDR-L1": "KSSQSWGYESRNKNSVA", "CDR-L2": "HASTRES", "CDR-L3": "QQYHRLPLS", "group": "GP_HC", "mean, log10 nM": "0.46", "detected": "6/6"}
{"CDR-L1": "IVSQLMLWGYHHKNSIA", "CDR-L2": "EAQTRLN", "CDR-L3": "QQYDRLPLF", "group": "En_Gen", "mean, log10 nM": "2.89", "detected": "5/6"}
{"CDR-L1": "KSSQSVFDESRNKNSVA", "CDR-L2": "EASTRES", "CDR-L3": "QQYHYLPIS", "group": "Ctrl", "mean, log10 nM": "2.83", "detected": "3/6"}
{"CDR-L1": "KWQNDSLFMGQYMNNIA", "CDR-L2": "NTSLRTM", "CDR-L3": "QQYYRLPLT", "group": "En_Gibbs", "mean, log10 nM": "0.66", "detected": "6/6"}
{"CDR-L1": "KLSQSVLYESSNKNSVA", "CDR-L2": "WADTRES", "CDR-L3": "QQYARLPLS", "group": "Ctrl", "mean, log10 nM": "0.10", "detected": "6/6"}
{"CDR-L1": "SIYDATMMESRNKNPIA", "CDR-L2": "DVSTRPS", "CDR-L3": "QQYDRLPLS", "group": "En_HC", "mean, log10 nM": "0.54", "detected": "6/6"}
{"CDR-L1": "KLSQSVLYEDRVKNSVA", "CDR-L2": "GASTRES", "CDR-L3": "QQYHRLPLS", "group": "GP_HC", "mean, log10 nM": "-0.09", "detected": "6/6"}
{"CDR-L1": "KLMQEMLYESRAANSVA", "CDR-L2": "NASQREE", "CDR-L3": "QQYHRLPLS", "group": "GP_Gibbs", "mean, log10 nM": "-0.19", "detected": "6/6"}
{"CDR-L1": "TLYGLTNSMSKNKDSVA", "CDR-L2": "EMSTREA", "CDR-L3": "QQYDRLPLA", "group": "En_Gen", "mean, log10 nM": "1.02", "detected": "6/6"}
{"CDR-L1": "KIGDVLNELMHKKNNVA", "CDR-L2": "DLVTREN", "CDR-L3": "QQYFRLPLS", "group": "En_Gen", "mean, log10 nM": "0.14", "detected": "6/6"}
{"CDR-L1": "KSHQSVLYESRNKNSVA", "CDR-L2": "NASTLES", "CDR-L3": "QQYHSLPLS", "group": "Ctrl", "mean, log10 nM": "0.46", "detected": "6/6"}
{"CDR-L1": "ALRGVGCDEQVKHSAIA", "CDR-L2": "DAEHANQ", "CDR-L3": "QQYSMLPLS", "group": "En_Gibbs", "mean, log10 nM": "0.73", "detected": "6/6"}
{"CDR-L1": "KVSMSWLYESRNKNSVA", "CDR-L2": "NASQRES", "CDR-L3": "QQYHRLPLS", "group": "GP_Gen", "mean, log10 nM": "-0.20", "detected": "6/6"}
{"CDR-L1": "KSSSSHLYESRNKNSVA", "CDR-L2": "SASTRES", "CDR-L3": "QQYHRLHLS", "group": "Ctrl", "mean, log10 nM": "0.88", "detected": "5/6"}
{"CDR-L1": "KLEQSMLYESRNSNSVA", "CDR-L2": "NASTREH", "CDR-L3": "QQYHRLPLM", "group": "GP_Gibbs", "mean, log10 nM": "0.16", "detected": "6/6"}
{"CDR-L1": "KLQFSCLYESRDKNSVA", "CDR-L2": "DASYRSS", "CDR-L3": "QQYHRLPLS", "group": "GP_Gibbs", "mean, log10 nM": "-0.08", "detected": "6/6"}
{"CDR-L1": "KLWQSVLYESRNKNSVA", "CDR-L2": "NASTRES", "CDR-L3": "QQYHRLPLS", "group": "GP_Gen", "mean, log10 nM": "1.91", "detected": "6/6"}
{"CDR-L1": "KSSQSVLYEYRNKNSVA", "CDR-L2": "NGSTRES", "CDR-L3": "QQYHRLPLS", "group": "Ctrl", "mean, log10 nM": "0.46", "detected": "6/6"}
{"CDR-L1": "KVSPSVLYQSRNKNSVA", "CDR-L2": "EASTRES", "CDR-L3": "QQYHRLPLS", "group": "GP_Gen", "mean, log10 nM": "-0.37", "detected": "6/6"}
{"CDR-L1": "KLSQSMLYESRNKNSVA", "CDR-L2": "NASQREM", "CDR-L3": "QQYHRLPLS", "group": "GP_Gen", "mean, log10 nM": "0.29", "detected": "6/6"}
{"CDR-L1": "MVSQLMLWGLHAKNSIA", "CDR-L2": "EAVTRYN", "CDR-L3": "QQYDRLPLI", "group": "En_Gen", "mean, log10 nM": "3.39", "detected": "2/6"}
{"CDR-L1": "MLDNCQAGYYQKNNNIA", "CDR-L2": "EMNMRRY", "CDR-L3": "QQYGRLPLS", "group": "En_Gibbs", "mean, log10 nM": "1.99", "detected": "6/6"}
{"CDR-L1": "KFSQSVGYQDRNKNSVA", "CDR-L2": "NAQTRMQ", "CDR-L3": "QQYHRLPLS", "group": "GP_Gibbs", "mean, log10 nM": "0.06", "detected": "6/6"}
{"CDR-L1": "KSSQSVLYESRNKNSVA", "CDR-L2": "WASWREF", "CDR-L3": "QQYHRLPLS", "group": "Ctrl", "mean, log10 nM": "1.80", "detected": "1/6"}
{"CDR-L1": "KSSQSVLYEDREKNSVA", "CDR-L2": "WASERES", "CDR-L3": "QQYHRPPLS", "group": "Ctrl", "mean, log10 nM": "no signal", "detected": "0/6"}
{"CDR-L1": "QIAMEMYHDLNDAQNVA", "CDR-L2": "DAMTCIP", "CDR-L3": "QQYSRLPLS", "group": "En_Gibbs", "mean, log10 nM": "1.16", "detected": "1/6"}

The first 3 entries again:

{"CDR-L1": "NLGQKMSLEYEQRNSIA", "CDR-L2": "DMTVREY", "CDR-L3": "QQYSRIPLI", "group": "En_Gibbs", "mean, log10 nM": "0.68", "detected": "6/6"}
{"CDR-L1": "KHSQSFLYESRNCNSVA", "CDR-L2": "WASTRES", "CDR-L3": "QQYHRLPLS", "group": "Ctrl", "mean, log10 nM": "2.43", "detected": "3/6"}
{"CDR-L1": "MIYGTQRELGLAANSIA", "CDR-L2": "DNVTRYD", "CDR-L3": "QQYERLPLS", "group": "En_Gen", "mean, log10 nM": "1.70", "detected": "1/6"}